{"sequences": {"note": "Amino acid sequences for entries named in this document (tags omitted).", "UniProt P30411, whole entry": "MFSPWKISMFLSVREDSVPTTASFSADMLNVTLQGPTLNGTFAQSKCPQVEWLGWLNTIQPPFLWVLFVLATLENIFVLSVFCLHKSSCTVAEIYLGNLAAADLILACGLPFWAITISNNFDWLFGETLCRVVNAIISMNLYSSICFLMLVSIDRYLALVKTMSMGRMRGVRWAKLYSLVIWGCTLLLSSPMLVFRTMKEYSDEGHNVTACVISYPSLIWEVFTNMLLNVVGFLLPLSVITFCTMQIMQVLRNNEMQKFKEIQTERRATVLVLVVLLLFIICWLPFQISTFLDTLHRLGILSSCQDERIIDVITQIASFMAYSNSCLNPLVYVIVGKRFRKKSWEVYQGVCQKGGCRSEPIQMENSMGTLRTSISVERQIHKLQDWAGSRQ"}, "source": "paper PMC4253050", "about": "(Cellular signalling, 2014)", "target": "kB2R (Homo sapiens, UniProt P30411)", "assay": "[3H]BK binding and endocytosis assay, cell surface kB2R, HEK293 cells", "settings": "HEK cells stably expressing kB1R and kB2R; 1 nM [3H]BK 90 min on ice; n=3", "data": [{"substance": "HOE140", "values": [{"measurement": "inhibition of [3H]-BK binding by kB2R antagonist", "result": "almost completely inhibited"}]}]}
